## Apparent affinities of Ab-95 variants for a coronavirus HR2 peptide

Binding partner: SARS-CoV-2 spike HR2 peptide, sequence PDVDLGDISGINAS.

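The parent was found by panning a naive human phage display library on the peptide. Variants in AAYL52 differ from the parent at up to three CDR positions; double and triple changes were sampled at random. The scFvs were displayed on barcoded MATa yeast, the peptide on MATalpha yeast. Pairs that bind mate more often; barcode pairs of the diploids are counted by sequencing. Scores were corrected for input abundance and mapped to Kd with protein pairs of known affinity run in the same pool. The assay was run in three technical replicates.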

The variants keep the heavy chain, the linker and the frameworks of Ab-95 (scFv order VH, a (GGGGS)3 linker, VL).
VH: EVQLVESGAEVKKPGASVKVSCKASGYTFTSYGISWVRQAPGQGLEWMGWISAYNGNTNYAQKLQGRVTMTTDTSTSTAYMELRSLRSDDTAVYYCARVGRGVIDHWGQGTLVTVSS
VL: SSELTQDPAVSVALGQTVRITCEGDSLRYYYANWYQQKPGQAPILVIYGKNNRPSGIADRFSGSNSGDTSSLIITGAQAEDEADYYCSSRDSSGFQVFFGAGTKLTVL

Each variant is given by its three light chain CDRs, as the data file delimits them; those of the parent are EGDSLRYYYAN, GKNNRPS, SSRDSSGFQVF.
Numbers give log10(Kd / nM), so 0 is 1 nM and 3 is 1 µM. Smaller is tighter.
A mean of the replicates is given; it leaves out those without a signal.
An entry "not detected" has no value in the source: the pair was not observed among the diploids in any replicate. This suggests poor binding but is not conclusive.
Parent in this assay: reference entry 2.31, copy in this library 2.25.
Nonspecific signal, from three strains lacking the peptide, appeared in 28% of pairings of library AAYL52, centred on 3.91 (5% of these signals below 2.90); values are not corrected for it.

log10 Kd (nM), mean | detected | CDR-L1 | CDR-L2 | CDR-L3
5.02 | 1/3 | EGDSLRFYYAN | GKNNRPS | SSRDSSPFQVM
2.46 | 3/3 | EGDSLRYYYAN | GKAQRPS | SSRDSSGFQLF
4.97 | 1/3 | EGDSLRYYYAN | GKNNRPS | SEVDSSGFQRF
4.26 | 2/3 | EGDSLRYYYAN | GKQNKPS | SSRESSGFQVF
3.68 | 1/3 | EGDSLRYYYAN | QKNNRPS | TERDSSGFQVF
1.03 | 3/3 | EGDSLRYAYAN | GLNNRPS | SSRDSSQFQVF
1.39 | 3/3 | EGVSLRYSYAN | GKNNRPS | SSGDSSGFQVF
not detected | 0/3 | EGDSLRYYYAN | GKNNEPS | SSRDSSQFQVF
3.75 | 2/3 | EGDSLRYYYAN | GKNNRPS | YNRDSVGFQVF
4.50 | 1/3 | EGDSLRYYYAN | GKNNYYS | SGRDSSGFQVF
3.59 | 1/3 | EADSLRKYYAN | GKNNRPS | SHRDSSGFQVF
not detected | 0/3 | EGDSLRQYYAN | TKNNRPS | SSSDSSGFQVF
4.14 | 2/3 | EGDSLRYYYAN | WKCRRPS | SSRDSSGFQVF
4.01 | 1/3 | EGDSLRYYPAN | CKNNRPS | SSRDSSGFQVT
4.44 | 2/3 | LGDSLRYYYAN | GKNNRPS | SSCMSSGFQVF
3.85 | 1/3 | EKDSLRYNYAN | GKNGRPS | SSRDSSGFQVF
3.94 | 2/3 | FGDSLRYYYAN | VKNGRPS | SSRDSSGFQVF
1.75 | 3/3 | EGDSLRYYYAN | GKNMRPS | SSRDSSKFQVF
2.52 | 3/3 | EGDSLRYYAAN | EKNNRPS | SSRDGSGFQVF
2.36 | 3/3 | EGDSLRYYYAN | NKNERPW | SSRDSSGFQVF
3.95 | 2/3 | EGMSLRYYYAN | GKNNRPS | SSRDSSIFQVF
3.69 | 2/3 | EGDSLRYYYAN | GTNNRPS | SSRDSSGFQCQ
3.28 | 3/3 | EGPSLRYYYAN | GKNNRPS | SSRDSLQFQVF
not detected | 0/3 | ESDSLRYYYAN | LKNNRPS | SSRDSMGFQVF
3.66 | 2/3 | EGDSLRYYYAN | GKNNRNS | SSRDSSGFQCR
2.00 | 3/3 | EGDSLRYYYAN | GKNNRPS | SARFGSGFQVF
2.12 | 3/3 | EGDSLRTYYAN | GKNNRPS | SSRDSSGFQVL
3.49 | 2/3 | EGDSLRYYYAN | EKKNRPS | SSRDSSGRQVF
3.54 | 1/3 | EGDSPRYYYAN | GKNNRPK | SSWDSSGFQVF
1.90 | 3/3 | EGDSLRYYYAN | GKGNRPS | DSRASSGFQVF
2.76 | 1/3 | EQDSLRYYYAN | GKNNIPS | SFRDSSGFQVF
4.21 | 2/3 | DSDSLRYYYAN | GKNNRPS | SSRDSSGFQVM
4.01 | 3/3 | VGCSPRYYYAN | GKNNRPS | SSRDSSGFQVF
5.29 | 1/3 | EGDSLRYYYAS | GKNNRPS | SSRDLSGFQVF
3.62 | 2/3 | EAISLRYYYAN | GKNNRPQ | SSRDSSGFQVF
4.98 | 2/3 | DGDSLRYYYAN | GKNNRPS | SSRDSSSFQWF
3.23 | 3/3 | CGDSLRYYYAN | GKNWRPS | SSRDSSGFQVM
2.84 | 3/3 | EGDSPWYYYTN | GKNNRPS | SSRDSSGFQVF
not detected | 0/3 | EGDSLRYYYAN | GANNRPS | SSRLSRGFQVF
4.16 | 1/3 | EEDSLRYYYAN | GKNNRPS | SSNDSSGFQMF
4.78 | 2/3 | EIWSLRTYYAN | GKNNRPS | SSRDSSGFQVF
3.94 | 2/3 | EGDSLRYYYAN | GKNNWPM | SVRDSSGFQVF
2.31 | 3/3 | EGDSLRYYYAN | GKNNRPH | MSRDSCGFQVF
not detected | 0/3 | EGDSLRYYYAN | GKNNRPR | SSRDSQPFQVF
5.11 | 1/3 | EGDSLRYYYAN | GKNNRPS | SSTDSSGFQPH
2.31 | 3/3 | EGDSKRYDYAN | GKNIRPS | SSRDSSGFQVF
2.88 | 2/3 | EGQSLRYYYAN | GKNNRPS | SSRDSSGDQVP
4.05 | 3/3 | EGCYLRYYYAN | GKCNRPS | SSRDSSGFQVF
4.27 | 2/3 | EGDSRRYYYAN | GKNNRRS | SSRDSSDFQVF
not detected | 0/3 | EGDSLRYYYAN | GKDNRPS | SSRDSPGFQPF

Repeated from above, the 6 best binders with a signal in all replicates:

CDR-L1 | CDR-L2 | CDR-L3 | log10 Kd (nM), mean | detected
EGDSLRYAYAN | GLNNRPS | SSRDSSQFQVF | 1.03 | 3/3
EGVSLRYSYAN | GKNNRPS | SSGDSSGFQVF | 1.39 | 3/3
EGDSLRYYYAN | GKNMRPS | SSRDSSKFQVF | 1.75 | 3/3
EGDSLRYYYAN | GKGNRPS | DSRASSGFQVF | 1.90 | 3/3
EGDSLRYYYAN | GKNNRPS | SARFGSGFQVF | 2.00 | 3/3
EGDSLRTYYAN | GKNNRPS | SSRDSSGFQVL | 2.12 | 3/3

Reference: Engelhart et al. 2022, doi:10.1038/s41597-022-01779-4. File: FLAb, binding data.